Test results taken from US20130197085A1, “AGENT AND METHOD FOR STABILIZING MEMBRANE PROTEIN” (priority 2007, published 2013).

Sequences of proteins named here, by UniProt entry; tags and fusion partners are left off.
UniProt O95342, whole entry L339V: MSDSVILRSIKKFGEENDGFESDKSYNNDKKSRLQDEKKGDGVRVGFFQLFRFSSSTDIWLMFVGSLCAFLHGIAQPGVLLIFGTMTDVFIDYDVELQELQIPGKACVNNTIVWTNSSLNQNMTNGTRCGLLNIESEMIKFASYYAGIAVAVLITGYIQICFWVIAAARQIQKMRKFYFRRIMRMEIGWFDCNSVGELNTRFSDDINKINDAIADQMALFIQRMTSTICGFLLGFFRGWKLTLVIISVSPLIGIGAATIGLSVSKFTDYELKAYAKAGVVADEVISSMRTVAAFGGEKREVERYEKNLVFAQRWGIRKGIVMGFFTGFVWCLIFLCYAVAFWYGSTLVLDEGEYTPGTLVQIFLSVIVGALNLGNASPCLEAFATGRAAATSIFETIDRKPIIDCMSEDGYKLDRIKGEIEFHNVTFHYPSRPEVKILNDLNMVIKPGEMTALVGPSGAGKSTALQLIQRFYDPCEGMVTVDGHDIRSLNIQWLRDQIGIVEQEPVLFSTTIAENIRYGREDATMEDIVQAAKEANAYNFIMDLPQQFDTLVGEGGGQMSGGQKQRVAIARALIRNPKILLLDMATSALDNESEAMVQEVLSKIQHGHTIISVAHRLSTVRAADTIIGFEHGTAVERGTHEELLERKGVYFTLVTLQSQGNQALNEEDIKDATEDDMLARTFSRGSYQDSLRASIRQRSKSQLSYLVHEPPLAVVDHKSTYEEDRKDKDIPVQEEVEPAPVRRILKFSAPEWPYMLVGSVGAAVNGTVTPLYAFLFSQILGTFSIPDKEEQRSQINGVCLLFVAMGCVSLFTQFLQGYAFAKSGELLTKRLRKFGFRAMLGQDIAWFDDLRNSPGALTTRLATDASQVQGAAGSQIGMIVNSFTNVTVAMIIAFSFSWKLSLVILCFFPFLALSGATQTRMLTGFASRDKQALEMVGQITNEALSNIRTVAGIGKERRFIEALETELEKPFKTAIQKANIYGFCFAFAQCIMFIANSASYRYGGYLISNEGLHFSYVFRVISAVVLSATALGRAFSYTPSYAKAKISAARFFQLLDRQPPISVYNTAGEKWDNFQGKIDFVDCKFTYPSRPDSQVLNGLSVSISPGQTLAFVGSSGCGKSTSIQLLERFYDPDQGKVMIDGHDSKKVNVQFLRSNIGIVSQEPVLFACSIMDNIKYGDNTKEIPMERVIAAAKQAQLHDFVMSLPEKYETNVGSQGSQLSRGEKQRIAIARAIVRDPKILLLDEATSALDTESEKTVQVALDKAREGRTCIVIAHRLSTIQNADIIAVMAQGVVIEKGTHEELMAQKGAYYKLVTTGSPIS

Target: T1, wild-type BSEP (Homo sapiens, UniProt O95342, L339V)
T1 construct: expressed in transfected cells; host or cells: MDCKII cells infected with recombinant adenovirus
Assay: Transcellular transport assay of [^3H] TC across MDCKII monolayer
Assay type: cell-based
Settings: other carboxylic acids, 1 mM, 24 hours; FIG. 10
Method: MDCKII cells were dispersed on a Transwell membrane insert (pore size: […]; Falcon) of a 24-well plate, resulting in a density of 1.5×10^5 cells/insert. Two days after the culture, the confluent cells were infected with recombinant adenoviruses having the cDNAs of wild-type, E297G and D482G BSEPs, and GFP, at 50 MOI. […] After completion of the treatment for 24 hours, a transcellular transport assay was carried out (see Mita et al., Am J Physiol Gastrointest Liver Physiol 290: G550-G556, 2006).
The apparent efflux clearance across the apical membrane (PSapical) was calculated by dividing a steady rate of the transcellular transport of [^3H] TC for 2 hours by the intracellular concentration of the [^3H] TC at the termination of the experiment (2 hours later).

Compound: CCCCCCCC(=O)O [octanoic acid]
- efflux of [^3H] TC from the base side to the apical side (in words): increased
